# Assay results published in patent US11174252B2, “Heterocyclic compounds as kinase inhibitors” (priority 2018, dated 2021).
# Protein sequences, listed by entry. Tags and fused reporters are not part of them. Residues count along the entry.
# UniProt P07333, 20-972 limits assumed: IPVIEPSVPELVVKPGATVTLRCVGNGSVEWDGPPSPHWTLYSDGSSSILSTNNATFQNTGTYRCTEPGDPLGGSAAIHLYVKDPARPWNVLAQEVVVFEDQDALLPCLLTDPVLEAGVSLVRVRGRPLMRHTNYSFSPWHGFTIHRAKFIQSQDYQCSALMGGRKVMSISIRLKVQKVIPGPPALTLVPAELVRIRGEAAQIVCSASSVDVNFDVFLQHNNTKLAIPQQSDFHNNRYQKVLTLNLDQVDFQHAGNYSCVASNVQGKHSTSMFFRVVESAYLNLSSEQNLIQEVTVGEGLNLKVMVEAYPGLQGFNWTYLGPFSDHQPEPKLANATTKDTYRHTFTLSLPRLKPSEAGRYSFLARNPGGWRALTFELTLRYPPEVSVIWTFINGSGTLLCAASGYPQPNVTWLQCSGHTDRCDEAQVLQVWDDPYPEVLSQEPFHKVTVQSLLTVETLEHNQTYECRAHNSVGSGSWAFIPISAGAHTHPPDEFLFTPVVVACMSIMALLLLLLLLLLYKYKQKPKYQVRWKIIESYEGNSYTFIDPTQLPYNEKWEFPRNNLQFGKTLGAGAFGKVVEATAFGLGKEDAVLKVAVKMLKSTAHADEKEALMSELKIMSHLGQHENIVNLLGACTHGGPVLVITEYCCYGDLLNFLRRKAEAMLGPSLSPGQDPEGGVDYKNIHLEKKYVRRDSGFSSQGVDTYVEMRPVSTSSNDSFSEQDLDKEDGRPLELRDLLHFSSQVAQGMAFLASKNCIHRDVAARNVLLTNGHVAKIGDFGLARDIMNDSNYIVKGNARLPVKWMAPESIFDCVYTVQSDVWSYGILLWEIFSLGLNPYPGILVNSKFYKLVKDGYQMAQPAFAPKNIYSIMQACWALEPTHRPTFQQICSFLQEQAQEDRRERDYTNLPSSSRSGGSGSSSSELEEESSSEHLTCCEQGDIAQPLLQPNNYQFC
# UniProt Q00534, whole entry: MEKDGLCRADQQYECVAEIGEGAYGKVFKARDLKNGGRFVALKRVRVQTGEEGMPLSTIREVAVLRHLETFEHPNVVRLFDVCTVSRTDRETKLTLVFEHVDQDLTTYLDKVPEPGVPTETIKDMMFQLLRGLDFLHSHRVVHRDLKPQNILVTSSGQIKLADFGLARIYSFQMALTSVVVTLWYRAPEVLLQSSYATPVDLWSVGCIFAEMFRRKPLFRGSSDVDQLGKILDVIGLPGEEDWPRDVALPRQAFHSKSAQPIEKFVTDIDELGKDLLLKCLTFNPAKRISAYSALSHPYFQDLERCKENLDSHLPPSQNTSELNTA
# UniProt P11802, whole entry: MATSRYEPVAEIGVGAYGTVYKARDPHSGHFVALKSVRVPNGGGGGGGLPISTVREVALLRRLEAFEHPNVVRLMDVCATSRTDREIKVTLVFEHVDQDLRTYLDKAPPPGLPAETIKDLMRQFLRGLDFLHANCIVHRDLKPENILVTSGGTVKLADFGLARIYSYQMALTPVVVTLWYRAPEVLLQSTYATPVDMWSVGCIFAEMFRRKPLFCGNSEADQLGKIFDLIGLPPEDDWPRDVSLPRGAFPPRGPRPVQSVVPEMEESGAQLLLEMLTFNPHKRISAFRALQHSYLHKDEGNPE
# UniProt P24385, whole entry partner: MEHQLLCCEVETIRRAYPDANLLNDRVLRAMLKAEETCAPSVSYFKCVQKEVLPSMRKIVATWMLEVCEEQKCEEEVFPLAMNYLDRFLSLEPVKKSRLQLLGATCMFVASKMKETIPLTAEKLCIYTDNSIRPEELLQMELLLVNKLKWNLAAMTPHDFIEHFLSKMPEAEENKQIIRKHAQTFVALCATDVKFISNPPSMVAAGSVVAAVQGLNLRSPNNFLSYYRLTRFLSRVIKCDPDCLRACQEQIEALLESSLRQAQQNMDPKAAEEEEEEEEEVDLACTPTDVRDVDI
# Some compounds may have been tested in ways that are not shown here.
# Assays:
# [1] = tested on: MCF-7; assay: Cancer cell proliferation assay, single agent; assay type: cell-based; details: read-out: IC50 (nM) MCF-7; MCF-7 cells; treated for 24-168 hours
# [2] = target: FMS kinase (Homo sapiens (Human), UniProt P07333); assay: LanthaScreen kinase assay (ATP, fluorescent-PolyGT substrate, TR-FRET); assay type: biochemical; details: read-out: FMS IC50
# [3] = target: CDK6 (Homo sapiens (Human), UniProt Q00534); assay: In vitro kinase inhibition, luminescence (ADP-Glo) with retinoblastoma substrate; assay type: biochemical; details: read-out: CDK6 IC50
# [4] = target: CDK4 (Homo sapiens (Human), UniProt P11802); assay: as above; assay type: biochemical; details: read-out: CDK4 IC50
substance,measurement,setting,value
"5-fluoro-N-(3-fluoro-4-(4-(pyrrolidin-1-yl) piperidin-1-yl) phenyl)-6-(8-fluoro-4-isopropyl-3,4-dihydro-2H-benzo[b][1,4]oxazin-6-yl)pyridin-2-amine",IC50,[1],40 nM
same,IC50,[2],7.5 nM
same,IC50,[3],5 nM
same,IC50,[4],1 nM
